Experimental findings from patent US20130261173A1, “CYCLODEXTRIN-BASED POLYMERS FOR THERAPEUTIC DELIVERY” (CERULEAN PHARMA INC., priority 2009, published 2013) are described below.

Like-named read-outs stand apart in the source and are kept apart here.

The procedure of series [1]: The drug release and stability method experiment was run using the following
A 10 mg/mL (with regard to polymer) solution of each CDP-linker-DTX nanoparticle was prepared in water (pH<5) or in 0.1×PBS buffer (pH=7.4). An aliquot of 100 μL was transferred into corresponding HPLC vials. A vial containing each CDP-linker-DTX nanoparticle in water for each designated time point was placed in both: 1) a water bath at 37° C. and 2) kept at room temperature at 25° C. Samples were mixed using a water bath shaker at 100 rpm during the experiments. At each designated time point, a vial was removed for each CDP-linker-DTX nanoparticle and processed for HPLC using a sample preparation procedure.
If there was any precipitated material in the vial, the contents were also stirred to dissolve the precipitate. If the sample was still opaque, an additional 25 μL of 0.1% formic acid in ACN was added.
The sample degradation was calculated based on the percentage of the amount of conjugated drug with regard to the initial starting point of the experiment (at t=0).

Series [2] is classed as physicochemical. Conditions: dissolved in water, DLS. How it is done:
CDP-hexanoate-docetaxel (100 mg) as prepared in example 3 above was dissolved in water (10 mL). Particle solution properties were characterized by dynamic light scattering (DLS) spectrometer.
CDP-NHEtSSEtOCO-2′-O-docetaxel (100 mg) as prepared in example 12 above was dissolved in water (10 mL). Particle solution properties were characterized by dynamic light scattering (DLS) spectrometer.
CDP-NHEtSSEtOCO-2′-O-docetaxel as prepared in Example 15 above (1 mg) was dissolved in water (1 mL). Particle solution properties were characterized by dynamic light scattering (DLS) spectrometer.
After decanting the acetone, the polymer was dissolved in 10 ml of water to make ˜10 mg/mL polymer solution. The solution was then dialyzed against 4 L water using 25 kDa MWCO dialysis tube. […] The filtered solution was then analyzed for size by dynamic light scattering (DLS) spectrometer.
The reaction was worked up by precipitating the polymer in 15 volumes of acetone (150 mL). […] The final solution (volume ˜52 mL) was filtered through a 0.22 μm filter and the filtered solution was analyzed for particle size.
The reaction was worked up by precipitating the polymer in 15 volumes of acetone (45 mL), which occurred immediately in the form of a lump. […] The resulting solution (˜16.5 mL), was filtered through a 0.22 μm filter and the filtered solution was analyzed for particle size. […]

Series [3] can be described thus: Tolerability in the murine melanoma model (body weight).
For series [4] the following is noted: mouse, in vivo.
[5] abbreviates: 15 mg/kg IV, three injections over 2 weeks (twice per week).
The mark [6] stands for this setting: 15 mg/kg IV, weekly schedule for 3 injections.
The mark [7] stands for this setting: 30 mg/kg IV, weekly schedule for 3 injections (study of 1.4, 2.3, 4.2, 5.2).
[8] abbreviates: 0.1x PBS, pH = 7.4, 37° C., 24 h.

With “CDP-2′-alanine glycolate-docetaxel [CDP-Ala Gly-DTX formulation]”, the “In vitro degradation of conjugate (24 hrs in PBS at 37° C.)” value in series [1] is recorded as 96%. In series [2], the Dv50 is listed as 12.9 nm. In series [2], this substance showed a Dv90 of 26.1 nm. For the same substance, the “Maximum body weight loss (%)” value stood at 6% in series [3] (setting [5]); 3% in series [3] (setting [6]); 2% in series [3] (30 mg/kg IV, biweekly schedule for 2 injections); 7% in series [3] (setting [7]).

Turning to “CDP-2′-glycine-docetaxel [CDP-Gly-DTX formulation]”, the “In vitro degradation of conjugate (24 hrs in PBS at 37° C.)” value in series [1] (setting [8]) came out at 84%. In series [1] (setting [8]), the “In vitro release of free drug (24 hrs in PBS at 37° C.)” value stood at 88%. Besides, the “Maximum body weight loss (%)” value is given as 7% in series [3] (setting [5]); 0% in series [3] (setting [6]); 4% in series [3] (30 mg/kg IV, biweekly schedule for 3 injections); 20% in series [3] (30 mg/kg IV, three injections over 2 weeks (twice per week)); 14% in series [3] (setting [7]); 15% in series [3] (30 mg/kg IV, weekly schedule for 3 injections (study of 1.5)).

On to “CDP-2′-hexanoate-docetaxel [CDP-Hex-DTX formulation]”, for which the “Maximum body weight loss (%)” value in series [4] was determined as 0%.
